{"source": "patent US12205808B2", "about": "(priority 2019, dated 2025)", "origin": "cited, not measured here"}
{"substance": "AM-1220", "values": [{"measurement": "Concentration in postmortem plasma samples", "result": 140, "unit": "ng/mL"}]}
